In assay [1] the target is T1, cloned human H3 receptors (Homo sapiens, UniProt Q9Y5N1).
T1 construct: expressed in transfected cells
The assay can be described thus: H3 Receptor Binding (Human). Particulars: cloned human H3 receptors stably expressed in SK-N-MC cells; average of the results obtained. How it is done:
H3 Receptor Binding (Human)
Binding of compounds to the cloned human H3 receptors, stably expressed in SK-N-MC cells, was performed as described by Barbier, A. J. et al. (Br. J. Pharmacol. 2004, 143(5), 649-661). Data for compounds tested in this assay are presented in Table 1 as an average of the results obtained.

Amino acid sequences for entries named in this document (tags omitted). A change or cut given only in a name is not applied to a line headed by its entry. Residues count along the entry.
UniProt Q9Y5N1: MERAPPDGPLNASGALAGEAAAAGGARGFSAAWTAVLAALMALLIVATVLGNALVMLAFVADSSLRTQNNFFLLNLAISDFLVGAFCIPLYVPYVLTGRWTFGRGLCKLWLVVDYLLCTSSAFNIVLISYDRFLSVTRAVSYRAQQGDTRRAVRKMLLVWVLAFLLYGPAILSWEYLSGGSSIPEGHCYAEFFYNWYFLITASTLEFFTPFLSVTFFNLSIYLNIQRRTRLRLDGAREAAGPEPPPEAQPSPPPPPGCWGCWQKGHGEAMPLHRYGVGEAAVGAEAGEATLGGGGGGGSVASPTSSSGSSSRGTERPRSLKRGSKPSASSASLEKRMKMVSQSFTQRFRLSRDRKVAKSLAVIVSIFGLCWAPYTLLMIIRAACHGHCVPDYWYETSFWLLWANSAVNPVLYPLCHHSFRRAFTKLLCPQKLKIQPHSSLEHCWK
UniProt Q9QYN8, 1-397 isoform Q9QYN8-3: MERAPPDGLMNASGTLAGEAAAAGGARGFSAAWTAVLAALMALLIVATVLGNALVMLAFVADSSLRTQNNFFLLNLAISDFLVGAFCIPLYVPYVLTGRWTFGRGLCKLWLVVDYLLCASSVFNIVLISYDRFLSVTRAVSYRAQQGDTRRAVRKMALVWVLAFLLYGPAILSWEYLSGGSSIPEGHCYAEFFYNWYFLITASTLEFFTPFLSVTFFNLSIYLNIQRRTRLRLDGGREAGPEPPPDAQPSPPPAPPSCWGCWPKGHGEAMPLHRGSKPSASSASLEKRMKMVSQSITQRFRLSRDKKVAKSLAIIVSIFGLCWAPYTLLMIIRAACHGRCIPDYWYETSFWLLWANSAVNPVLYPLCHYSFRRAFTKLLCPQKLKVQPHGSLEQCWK

Assay [2] has as its target T2, Rat H3 (Rattus norvegicus, UniProt Q9QYN8). Kind of assay: cell-based. An excerpt: (§1) Sublines of SK-N-MC cells were created that expressed a reporter construct and either the human or rat H3 receptor.
A further assay addresses T3, human H3 receptor (Homo sapiens, UniProt Q9Y5N1).
T3 construct: expressed in transfected cells; host or cells: SK-N-MC sublines with a reporter construct
Kind of assay: Cyclic AMP Accumulation (human H3 receptor). It counts as cell-based.
Description: as §1

In assay [3] the target is T2, Rat H3. Kind of assay: H3 Receptor Binding (Rat). The following applies: rat brain membranes without cerebellum, 0.8 nM N-[3H]-α-methylhistamine, 60 min at 25° C.; average of the results obtained. How it is done: H3 Receptor Binding (Rat)
A rat brain without cerebellum (Zivic Laboratories Inc., Pittsburgh, Pa.) was homogenized in 50 mM Tris-HCl/5 mM EDTA and centrifuged at 1,000 rpm for 5 min. The supernatant was removed and recentrifuged at 15,000 rpm for 30 min. Pellets were rehomogenized in 50 mM Tris/5 mM EDTA (pH 7.4). Membranes were incubated with 0.8 nM N-[^3H]-α-methylhistamine plus/minus test compounds for 60 min at 25° C. and harvested by rapid filtration over GF/C glass fiber filters (pretreated with 0.3% polyethylenimine) followed by four washes with buffer. Nonspecific binding was defined in the presence of 100 μM histamine. […] Data for compounds tested in this assay are presented in Table 2 as an average of the results obtained.

Broadly, the Ki is the equilibrium dissociation constant of an inhibitor or competing ligand from its target.

In the case of `O=C(c1ccc(Oc2ccc(F)cc2)nc1)N1CCCN(C2CCC2)CC1` [Example 19, (4-Cyclobutyl-[1,4]diazepan-1-yl)-[6-(4-fluoro-phenoxy)-pyridin-3-yl]-methanone], the Ki in assay [1] turned out to be 4 nM; on Rat H3 [3], 66 nM. Also, the values for the Kb on Rat H3 [2] and on human H3 receptor were 3.31 nM and 0.417 nM, respectively.

For the origin of these results see patent publication US8940731B2, “Substituted pyridyl amide compounds as modulators of the histamine H3 receptor” (Janssen Pharmaceutica NV, priority 2006, dated 2015).
